Assay results as given in ChEMBL document CHEMBL1687933, “Synthesis and pharmacological evaluation of fluorine-containing D₃ dopamine receptor ligands” (J Med Chem, 2011).

Species on record: Homo sapiens
Experiment: Selectivity ratio of Ki for human D2 receptor to Ki for human D3 receptor

Ratio Ki: 5.7
Structure (SMILES): O=C(NCCCCN1CCN(c2ccccc2OCCF)CC1)c1ccc(OCCOCCF)cc1
